This test concerns the target T1, Caspase-3 (Homo sapiens, UniProt P42574).
T1 sequence (P42574 whole entry): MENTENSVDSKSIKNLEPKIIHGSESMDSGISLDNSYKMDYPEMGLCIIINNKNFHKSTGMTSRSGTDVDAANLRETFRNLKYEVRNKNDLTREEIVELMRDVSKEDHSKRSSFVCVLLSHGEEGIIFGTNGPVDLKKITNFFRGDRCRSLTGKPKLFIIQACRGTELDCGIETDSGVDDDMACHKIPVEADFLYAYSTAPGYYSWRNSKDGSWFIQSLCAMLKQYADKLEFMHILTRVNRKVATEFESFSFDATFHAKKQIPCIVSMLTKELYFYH
Kind of test: Inhibition of recombinant human caspase-3 using Ac-LDEVD-AMC as substrate assessed as accumulation of 7-AMC incubated for 10 mins followed by substrate addition measured for 10 mins by fluorimetric analysis.

Here are results for one molecule from ChEMBL document CHEMBL2390930, “Design, synthesis and evaluation of 1,2-benzisothiazol-3-one derivatives as potent caspase-3 inhibitors” (Bioorg Med Chem, 2013).

As for `CC(=O)N[C@@H](CC(=O)O)C(=O)N[C@@H](CCC(=O)O)C(=O)N[C@H](C(=O)N[C@H](C=O)CC(=O)O)C(C)C`, the IC50 was determined as 0.2 nM.
